Experimental data reported in patent US12398154B2, “Azaquinazoline pan-KRas inhibitors” (Mirati Therapeutics, Inc., priority 2020, dated 2025).

Protein sequences, listed by entry. Tags and fused reporters are not part of them. Residues count along the entry.
UniProt P01116, 1-169 isoform 2 G13D limits assumed: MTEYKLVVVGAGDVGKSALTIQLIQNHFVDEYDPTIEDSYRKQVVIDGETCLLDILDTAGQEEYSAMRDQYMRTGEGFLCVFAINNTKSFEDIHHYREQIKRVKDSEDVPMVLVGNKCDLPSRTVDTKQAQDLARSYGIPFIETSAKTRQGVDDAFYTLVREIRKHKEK
UniProt P01116, 1-169 isoform 2 Q61H limits assumed: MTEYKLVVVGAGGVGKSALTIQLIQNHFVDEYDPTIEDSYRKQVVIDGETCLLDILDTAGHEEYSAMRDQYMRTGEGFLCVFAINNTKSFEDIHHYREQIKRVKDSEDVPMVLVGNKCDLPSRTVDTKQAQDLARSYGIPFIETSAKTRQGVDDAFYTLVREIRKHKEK

What was measured:
[1] = molecular target: KRas G13D (Homo sapiens, UniProt P01116, G13D); experiment: KRas binding assay (TR-FRET displacement); details: read-out: Binding to KRas (IC50 nM) G13D;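 also: One-hour room temperature incubation before TR-FRET reading, IC50 from a four-parameter curve fit to percent-of-control data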
[2] = molecular target: KRas Q61H (Homo sapiens, UniProt P01116, Q61H); experiment: KRas binding assay (TR-FRET displacement); details: read-out: Binding to KRas (IC50 nM) Q61H;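 also: TR-FRET signal read after one hour at room temperature, IC50 derived by four-parameter fitting of percent-of-control values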
[3] = tested on: phospho-ERK in A549 (G12S) cells; experiment: Inhibition of KRas-mediated phosphorylation of ERK (in-cell western); details: read-out: Inhibition (IC50, nM) of KRas-mediated Phosphorylation of ERK, A549, 3 hours compound, phospho-ERK normalized to GAPDH
[4] = tested on: phospho-ERK in AsPC-1 (G12D) cells; experiment: as above; details: read-out: Inhibition (IC50, nM) of KRas-mediated Phosphorylation of ERK, AsPC-1, 3 hours compound, phospho-ERK normalized to GAPDH
[5] = tested on: phospho-ERK in HCT116 (G13D) cells; experiment: as above; details: read-out: Inhibition (IC50, nM) of KRas-mediated Phosphorylation of ERK, HCT116, 3 hours compound, phospho-ERK normalized to GAPDH
[6] = tested on: phospho-ERK in MKN1 (WTdep) cells; experiment: as above; details: read-out: Inhibition (IC50, nM) of KRas-mediated Phosphorylation of ERK, MKN1, 3 hours compound, phospho-ERK normalized to GAPDH
[7] = tested on: phospho-ERK in NCI-H358 (G12C) cells; experiment: as above; details: read-out: Inhibition (IC50, nM) of KRas-mediated Phosphorylation of ERK, H358, 3 hours compound, phospho-ERK normalized to GAPDH
[8] = tested on: phospho-ERK in NCI-H460 (Q61H) cells; experiment: as above; details: read-out: Inhibition (IC50, nM) of KRas-mediated Phosphorylation of ERK, H460, 3 hours compound, phospho-ERK normalized to GAPDH
[9] = tested on: phospho-ERK in NCI-H727 (G12V) cells; experiment: as above; details: read-out: Inhibition (IC50, nM) of KRas-mediated Phosphorylation of ERK, H727, 3 hours compound, phospho-ERK normalized to GAPDH
[10] = tested on: phospho-ERK in PSN-1 (G12R) cells; experiment: as above; details: read-out: Inhibition (IC50, nM) of KRas-mediated Phosphorylation of ERK, PSN1, 3 hours compound, phospho-ERK normalized to GAPDH

| IC50 [1] [nM] | IC50 [2] [nM] | Compound | IC50 [3] [nM] | IC50 [4] [nM] | IC50 [5] [nM] | IC50 [6] [nM] | IC50 [7] [nM] | IC50 [8] [nM] | IC50 [9] [nM] | IC50 [10] [nM] |
| --- | --- | --- | --- | --- | --- | --- | --- | --- | --- | --- |
| 13 | 14 | CCc1c(F)ccc2cc(O)cc(-c3ncc4c(NCc5ncc[nH]5)nc(OC[C@@]56CCCN5C[C@H](F)C6)nc4c3F)c12 | ≥ 10000 | ≥ 10000 | ≥ 10000 | 412 | 701 | 2920 | ≥ 10000 | ≥ 10000 |
| 3620 | 3440 | OC1COCCN(c2nc(OCC34CCCN3CCC4)nc3c(F)c(-c4cccc5cccc(F)c45)ncc23)C1 (stereo not drawn) |  |  |  |  |  |  |  |  |
